Data on six compounds can be found in US20230103444A1 (The Regents of the University of Colorado, a Body Corporate, priority 2020, published 2023).

Each structure is given as a SMILES string. “And” between values parts separate entries of the source, which are not always exact repeats. Equal entries are not always repeated. Where two headings read alike, the source gives them in different places. A value given as a limit tells only on which side of the number the result lay.

One data set addresses T1, cat-CHD1L ATPase (Homo sapiens, UniProt Q86WJ1).
T1 construct: inferred from Ni-NTA / imidazole purification; made in house; host or cells: E. coli Rosetta 2 (DE3) pLysS; constructs were a gift from Helena Berglund, Karolinska Institute
T1 sequence (Q86WJ1 16-611 limits assumed): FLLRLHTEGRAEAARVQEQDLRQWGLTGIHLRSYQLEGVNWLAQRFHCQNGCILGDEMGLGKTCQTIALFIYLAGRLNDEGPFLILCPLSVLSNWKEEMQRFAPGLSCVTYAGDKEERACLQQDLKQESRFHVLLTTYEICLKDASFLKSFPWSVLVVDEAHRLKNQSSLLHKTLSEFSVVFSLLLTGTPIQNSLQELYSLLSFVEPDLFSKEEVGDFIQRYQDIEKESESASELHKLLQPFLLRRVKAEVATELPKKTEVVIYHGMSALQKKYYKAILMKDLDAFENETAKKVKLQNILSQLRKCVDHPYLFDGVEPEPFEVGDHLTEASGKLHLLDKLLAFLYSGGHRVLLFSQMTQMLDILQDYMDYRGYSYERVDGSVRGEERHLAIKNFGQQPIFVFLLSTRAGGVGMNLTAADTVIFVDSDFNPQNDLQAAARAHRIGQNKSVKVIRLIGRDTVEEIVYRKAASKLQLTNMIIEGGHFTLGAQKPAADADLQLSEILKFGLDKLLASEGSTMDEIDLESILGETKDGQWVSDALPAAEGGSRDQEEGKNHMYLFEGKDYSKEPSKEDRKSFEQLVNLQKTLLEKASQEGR
Briefly: CHD1L ATPase assay with recombinant catalytic domain (cat-CHD1L). The class given is biochemical. As to conditions: for CHD1L enzyme inhibition, in words: recombinant cat-CHD1L.

Data set [1] can be described thus: Mouse liver microsome stability. As to conditions: for in vitro liver microsome half-life: second series, different liver microsome preparation. A general note: Liver microsomes are a subcellular fraction often used to study metabolism.
Data set [2] is described as follows: Pharmacokinetics in CD-1 mice. As to conditions: for half-life: female, CD-1, mouse, 50 mg/kg; for In vivo Half-Life: plasma half-life.
Where [3] appears, read: Table 6, read-out: cat-CHD1L inhibition IC50.

For the compound `Cc1cc(Nc2ccc(NC(=O)Cc3cccc4ccccc34)cc2)nc(N2CCCC2)n1` [Compound 6.16, N-(4-((6-methyl-2-(pyrrolidin-1-yl)pyrimidin-4-yl)amino)phenyl)-2-(naphthalen-1-yl)acetamide], at cat-CHD1L ATPase (setting [3]), the IC50 (as a rule, the concentration at which inhibition is half-maximal) came to 1300 nM. In addition, the “CHD1L enzyme inhibition, in words” value is on record as “more potent CHD1L inhibitors” on cat-CHD1L ATPase and “good enzyme inhibition” at cat-CHD1L ATPase (listed as 54).
Turning to `Cc1cc(Nc2ccc(NC(=O)Cc3cc(Br)cs3)cc2)nc(N2CCCC2)n1` [Compound 6.11, 2-(4-bromothiophen-2-yl)-N-(4-((6-methyl-2-(pyrrolidin-1-yl)pyrimidin-4-yl)amino)phenyl)-acetamide], on cat-CHD1L ATPase, the 50% inhibitory concentration (IC50) turned out to be 1300 nM. Further, the “CHD1L enzyme inhibition, in words” value on cat-CHD1L ATPase is given as “more potent CHD1L inhibitors”; on cat-CHD1L ATPase (listed as 52), “good enzyme inhibition”. In addition, the “microsomal half-life relative to compound 6.0” value in data set [1] (6.11 vs 6.0) is 2 fold. Further, the “in vitro liver microsome half-life” value in data set [1] is 2.17 h and 2.172 h. Further, the “in vivo half-life relative to compound 6” value in data set [2] (6.11 vs 6) is 2.7 fold. Besides, the half-life – broadly, how long it takes for the measured level to halve – in data set [2] (in vivo) is 8 h; in data set [2] (in vivo, ip), 8 h; in data set [2] (plasma, ip), above 6 h. In data set [2] (oral gavage (p.o.) 50 mg/kg), the t1/2λ is 8 h. Further, the “In vivo Half-Life” value in data set [2] turned out to be 8 h.
Regarding `Cc1cc(Nc2ccc(NC(=O)Cc3c[nH]c4ccccc34)cc2)nc(N2CCCC2)n1` [Compound 6.5, 2-(1H-indol-3-yl)-N-(4-((6-methyl-2-(pyrrolidin-1-yl)pyrimidin-4-yl)amino)phenyl)acetamide], the “CHD1L enzyme inhibition, in words” value on cat-CHD1L ATPase is reported as “more potent CHD1L inhibitors”; at cat-CHD1L ATPase (listed as 57), “good enzyme inhibition”.
In the case of `Cc1cc(Nc2ccc(NC(=O)Cc3c[nH]c4cc(Cl)ccc34)cc2)nc(N2CCCC2)n1` [Compound 6.18, 2-(6-chloro-1H-indol-3-yl)-N-(4-((6-methyl-2-(pyrrolidin-1-yl)pyrimidin-4-yl)amino)phenyl)acetamide], on cat-CHD1L ATPase (setting [3]), the IC50 came out at 1000 nM. Moreover, the “CHD1L enzyme inhibition, in words” value at cat-CHD1L ATPase is listed as “more potent CHD1L inhibitors”; at cat-CHD1L ATPase (listed as 28), “good enzyme inhibition”.
Regarding `Cc1cc(Nc2ccc(NC(=O)Cc3cccs3)cc2)nc(N2CCCC2)n1` [Compound 6, N-(4-((6-methyl-2-(pyrrolidin-1-yl)pyrimidin-4-yl)amino)phenyl)-2-(thiophen-2-yl)acetamide], the “in vitro liver microsome half-life” value in data set [1] and in data set [1] (listed as 6.0) was 1.12 h each time. Besides, the half-life in data set [2] (in vivo) was 3 h; in data set [2] (in vivo, ip), 3 h. For the same compound, the “In vivo Half-Life” value in data set [2] was 3 h. Moreover, the “T1/2λ” value in data set [2] (single i.p. 50 mg/kg) worked out at 2.97 h.
As to `Cc1cc(Nc2ccc(NC(=O)Cc3c(C)[nH]c4ccccc34)cc2)nc(N2CCCC2)n1` [Compound 6.21, 2-(2-methyl-1H-indol-3-yl)-N-(4-((6-methyl-2-(pyrrolidin-1-yl)pyrimidin-4-yl)amino)phenyl)acetamide], on cat-CHD1L ATPase (setting [3]), the IC50 was determined as 1000 nM. The figures for the “CHD1L enzyme inhibition, in words” value at cat-CHD1L ATPase and on cat-CHD1L ATPase (listed as 31) were “more potent CHD1L inhibitors” and “good enzyme inhibition”, respectively.
